# From PubChem BioAssay AID889 (National Center for Advancing Translational Sciences (NCATS), 2007)
# The chains behind the UniProt entries cited, without tags or fusion partners. Residues count along the entry.
# UniProt P55210, 24-198 limits assumed: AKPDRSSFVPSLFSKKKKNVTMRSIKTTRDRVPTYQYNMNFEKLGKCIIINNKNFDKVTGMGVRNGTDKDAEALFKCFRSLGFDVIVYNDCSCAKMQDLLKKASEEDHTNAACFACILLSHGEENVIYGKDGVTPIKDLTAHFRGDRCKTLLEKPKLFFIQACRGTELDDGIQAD
# UniProt P55210, 207-303 limits assumed: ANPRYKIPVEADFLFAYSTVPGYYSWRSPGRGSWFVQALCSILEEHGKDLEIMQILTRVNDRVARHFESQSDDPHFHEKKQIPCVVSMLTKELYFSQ
# The list shows a part of the results, in another mix than the full data. Records with an inconclusive call do not appear. Calls of active or inactive are those of the source. Calls follow the shape of the dose curve; as a rule, active = well fitted inhibition curve with a large enough effect in the main read-out, with a control signal flat (not every such curve was filed as active); inconclusive = small, poorly fitted or top-dose-only effect, or a change in a side signal; inactive = flat fitted curve, though single readings scatter.
# Molecular target: Caspase-7 (Homo sapiens) (UniProt P55210)
# Assay: qHTS Assay for Allosteric/Competitive Inhibitors of Caspase-7; also: % of control where 0% means no effect
# Conditions: recombinant caspase-7, Ac-DEVD-AFC fluorescence rate; at 57.5 µM (top of the series)
# Description: NIH Molecular Libraries Screening Centers Network [MLSCN]
# NIH Chemical Genomics Center [NCGC]
# PI Name: Dr. James Wells,
# Dr. Enrique Perez-Paya, Dr.Janice Williams, Dr. Dennis Wolan, a person
# The caspases (Cysteine Aspartyl Protease) comprise a related family of 14 dimeric proteases that are critical mediators of apoptosis (programmed cell death) and inflammation. The caspases represent an important class of drug targets for stroke, ischemia, cancer and inflammatory diseases. […] One goal of this project was to identify compounds that act as allosteric inhibitors via stabilizing the procaspase form of the enzyme. […]
# The biochemical assay was configured using purified caspase 7 at a high enzyme concentration to promote formation of the homodimers and thus facilitate the identification of allosteric inhibitors. […] After initiation of the assay with substrate the plates were rapidly read using an automated robotic system (Kalypsys, Inc.) to maintain consistent timing. […]
# Caspase 7 was prepared in buffer (50 mM HEPES pH 7.5, 50 mM KCl, 200 mM NaCl, 10 mM DTT, 0.1% CHAPS) at a concentration of 66.6 nM and 3 uL was dispensed to all wells using black solid Kalypsys 1536-well plates. […] The plates were then exposed using 405 nm excitation/520 nm emission filters for 4 sec and read at 20 sec intervals for 3 min. […]
row,SMILES,"activity change, negative = inhibition"
1,CN(CCCl)CCCl,inactive: -2.3%
2,O=[N+]([O-])C(Cl)(Cl)Cl,inactive: 0.777%
